Test [1] addresses T1, Papaya QC (Carica papaya, UniProt O81226). Description: Continuous spectrophotometric assay of substrate conversion, papaya QC. Conditions: for Ki / Ki*: n.i. = no inhibition.
In test [2] the target is T1, Papaya QC. The test can be described thus: Fluorometric QC assay with pyroglutamyl aminopeptidase as auxiliary enzyme, papaya QC. The note with it: for inhibition of papaya QC by the peptide: H-Gln-AMC as substrate; for pH-optimum of cyclization: first-order rate-law conditions; for conversion by papaya QC: analyzed fluorometrically.
Test [3] addresses T1, Papaya QC. Description: MALDI-TOF qualitative substrate conversion, papaya QC.
Test [4] deals with Papaya QC. The test can be described thus: Continuous spectrophotometric assay of substrate conversion, papaya QC.
Setting [5] is: 0.05 M Tricine-NaOH, pH 8.0, 0.5 M KCl.
[6] abbreviates: Table 6, for substrate inhibition.
Where [7] appears, read: 0.1 M pyrophosphate buffer, pH 6.1.

Amino acid sequences for entries named in this document (tags omitted). Residues count along the entry.
UniProt O81226, 1-288: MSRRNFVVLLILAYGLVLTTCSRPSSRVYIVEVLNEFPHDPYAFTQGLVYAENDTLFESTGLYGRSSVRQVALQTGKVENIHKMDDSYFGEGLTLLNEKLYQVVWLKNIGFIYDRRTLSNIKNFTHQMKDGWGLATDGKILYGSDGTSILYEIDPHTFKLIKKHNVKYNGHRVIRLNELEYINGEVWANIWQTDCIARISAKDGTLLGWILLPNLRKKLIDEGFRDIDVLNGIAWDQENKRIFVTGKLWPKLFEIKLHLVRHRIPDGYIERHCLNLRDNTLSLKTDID

One may read the kcat as the number of substrate molecules converted per active site and unit of time at saturation. The Km is the concentration of substrate that gives half-maximal velocity.

On to `NC(=O)CCC(N)C(N)=O` (centres unmarked), for which, at Papaya QC [1] (0.05 M Tricine-NaOH, pH 8.0), the kcat amounted to 43.4 ± 0.4 s⁻¹ and the Ki result was “n.i”. Moreover, on Papaya QC [1] (setting [5]), the kcat was 45.2 ± 0.3 s⁻¹ and the Ki result is recorded as “n.i”. Also, at Papaya QC [1] (Table 6), the Km stood at 433 µM and the kcat came to 44.8 ± 0.4 s⁻¹. For the same compound, the “Ki*” value on Papaya QC [1] (setting [6]) is “n.i”.
Consider `C[C@H](NC(=O)[C@H](C)NC(=O)[C@H](C)NC(=O)[C@H](C)NC(=O)[C@@H](N)CCC(N)=O)C(N)=O` [H-Gln-Ala-Ala-Ala-Ala-NH2], for which, at Papaya QC [1] (Table 7, substrate length), the Km came out at 197 µM and the kcat worked out at 74.6 ± 1.0 s⁻¹.
Consider `C[C@H](NC(=O)[C@H](C)NC(=O)[C@@H](N)CCC(N)=O)C(N)=O` [H-Gln-Ala-Ala-NH2], for which, on Papaya QC [1] (Table 7, substrate length), the Km was 164 µM and the kcat came out at 83.2 ± 1.0 s⁻¹.
With `C[C@H](NC(=O)[C@H](C)NC(=O)[C@H](CO)NC(=O)[C@H](C)NC(=O)[C@H](C)NC(=O)[C@@H](N)CCC(N)=O)C(N)=O` [H-Gln-Ala-Ala-Ser-Ala-Ala-NH2], at Papaya QC [1] (Table 7, substrate length), the Km is 216 µM and the kcat worked out at 78.5 ± 1.0 s⁻¹.
For `C[C@H](NC(=O)[C@@H](N)CCC(N)=O)C(N)=O` [H-Gln-Ala-NH2], on Papaya QC [1] (Table 7, substrate length), the Km was 212 µM and the kcat amounted to 62.8 ± 3.0 s⁻¹.
For the compound `C[C@H](NC(=O)[C@@H](N)CCC(N)=O)C(=O)O` [H-Gln-Ala-OH], on Papaya QC [1] (0.05 M Tricine-NaOH, pH 8.0), the Km was determined as 137 µM, the kcat is 69.7 ± .9 s⁻¹ and the Ki entry was “n.i”. On Papaya QC [1] (setting [5]), the kcat was determined as 68.1 ± 0.6 s⁻¹ and the Ki result is given as “n.i”. Also, at Papaya QC [1] (Table 6), the Km was 158 µM and the kcat worked out at 69.8 ± 1.0 s⁻¹. For the same compound, the “Ki*” value at Papaya QC [1] (setting [6]) was “n.i”.
Regarding `NC(=O)CC[C@H](NC(=O)[C@@H](N)CCC(N)=O)C(=O)O` [H-Gln-Gln-OH], on Papaya QC [1] (Table 6), the Km came out at 44 µM and the kcat was 43.2 ± 0.7 s⁻¹. The “Ki*” value at Papaya QC [1] (setting [6]) was “n.i”.
As to `NC(=O)CC[C@H](N)C(=O)N[C@@H](CCC(=O)O)C(=O)O` [H-Gln-Glu-OH], on Papaya QC [1] (0.05 M Tricine-NaOH, pH 8.0), the Km worked out at 98 µM, the kcat was 45.0 ± 0.5 s⁻¹ and the Ki entry is recorded as “n.i”. Moreover, at Papaya QC [1] (setting [5]), the kcat worked out at 44.4 ± 0.3 s⁻¹ and the Ki entry is “n.i”. For the same compound, on Papaya QC [1] (Table 6), the Km was 106 µM and the kcat was 50.3 ± 0.6 s⁻¹. Also, the “Ki*” value at Papaya QC [1] (setting [6]) was “n.i”.
For `NC(=O)CC[C@H](N)C(=O)NCC(=O)O` [H-Gln-Gly-OH], at Papaya QC [1] (Table 6), the Km stood at 641 µM and the kcat was found to be 45.8 ± 0.4 s⁻¹. For the same compound, the “Ki*” value on Papaya QC [1] (setting [6]) is listed as “n.i”.
For `CC(C)(C)OC(=O)C(N)CCC(N)=O` (centres unmarked) [H-Gln-OtBu], at Papaya QC [1] (Table 6), the Km came to 223 µM and the kcat is 49.4 ± 0.6 s⁻¹. In addition, at Papaya QC [1] (setting [6]), the “Ki*” value is recorded as “n.i”.
`NC(=O)CC[C@H](N)C(=O)N[C@@H](Cc1ccc(O)cc1)C(=O)O` [H-Gln-Tyr-OH]: at Papaya QC [1] (setting [6]), the “Ki*” value was “n.i”.
Turning to `CC(C)[C@H](NC(=O)[C@@H](N)CCC(N)=O)C(=O)O` [H-Gln-Val-OH], the “Ki*” value at Papaya QC [1] (setting [6]) was “n.i”.
Regarding `CC(C)C[C@H](NC(=O)[C@H](CCCNC(=N)N)NC(=O)[C@H](CCCCN)NC(=O)[C@H](Cc1ccccc1)NC(=O)[C@@H](N)CCC(=O)O)C(=O)N[C@@H](C)C(N)=O` [H-Glu-Phe-Lys-Arg-Leu-Ala-NH2], the “inhibition of papaya QC by the peptide” value at Papaya QC [2] was “not inhibited”.
For H-Gln(NMe)-Phe-Lys-Ala-Glu-NH2, at Papaya QC [3], the “conversion by papaya QC” value is given as “only converted into a pyroglutamyl residue by papaya QC”.
For H-Gln-AMC, on Papaya QC [1] (Table 6), the Km was 42 µM and the kcat amounted to 39.4 ± 0.4 s⁻¹.
For the compound H-Gln-Lys(Gln)-Arg-Leu-Ala-NH2, at Papaya QC [3], the “conversion by papaya QC” value is on record as “converted”.
As for H-Gln-cyclo(Nε-Lys-Arg-Pro-Ala-Gly-Phe), in the test on Papaya QC [4], the “fold higher kcat/KM-value of papaya QC than human QC” value is reported as “approximately 4 fold”. At Papaya QC [1], the Km was determined as 133 µM and the “kcat (turnover number)” value came out at 49.4 ± 0.6 s⁻¹.
Take H-Gln-βNA: the Km is 36 µM at Papaya QC [1] (0.05 M Tricine-NaOH, pH 8.0); 32 µM on Papaya QC [1] (setting [5]); 38 µM at Papaya QC [1] (Table 6). In addition, the kcat is 48.8 ± 1.0 s⁻¹ at Papaya QC [1] (0.05 M Tricine-NaOH, pH 8.0); 47.2 ± 0.8 s⁻¹ at Papaya QC [1] (setting [5]); 51.4 ± 1.4 s⁻¹ on Papaya QC [1] (Table 6). Moreover, the Ki came to 1330 µM at Papaya QC [1] (setting [5]); 1140 µM at Papaya QC [1] (0.05 M Tricine-NaOH, pH 8.0); 1200 µM on Papaya QC [1] (setting [6]). The compound also returned a pH-optimum of cyclization at Papaya QC [2] of 8.0.
With H-Glu(OMe)-Phe-Lys-Arg-Leu-Ala-NH2, the “inhibition of papaya QC by the peptide” value at Papaya QC [2] is reported as “not inhibited”.
As to H-Glu(OMe)-β-naphthylamide, the “conversion by papaya QC” value on Papaya QC [2] was “Neither of these compounds were converted”.
As to H-Glu-βNA, at Papaya QC [2], the “fold difference of specificity constants (Gln vs Glu cyclization) at the respective pH-optima” value is “approximately 80,000 fold”, the “conversion by papaya QC” value is reported as “Neither of these compounds were converted” and the pH-optimum of cyclization came to 6.0. Besides, on Papaya QC [2] (0.1 M borate buffer, pH 8.5), the Km is 1760 µM and the kcat was found to be 0.00933 ± 0.00017 s⁻¹. In addition, at Papaya QC [2] (0.1 M phosphate buffer, pH 7.5), the Km came out at 1450 µM and the kcat was found to be 0.0153 ± 0.00017 s⁻¹. For the same compound, on Papaya QC [2] (setting [7]), the Km worked out at 1130 µM and the kcat came out at 0.0188 ± 0.00067 s⁻¹. In addition, at Papaya QC [2] (around pH 6.0), the “ratio of QC versus EC activity” value is recorded as “about 8,000”.
Regarding H-βhomoGln-Phe-Lys-Arg-Leu-Ala-NH2, on Papaya QC [1], the Km was found to be 3100 µM and the “kcat (turnover number)” value amounted to 4.0 ± 0.4 s⁻¹.
